Our source for the IC50 values is patent publication US8575176B2, “Heteroaromatic pyrazinoylguanidine sodium channel blockers” (Parion Sciences, Inc., priority 2008, dated 2013).

Protein sequences, listed by entry. Tags and fused reporters are not part of them. Residues count along the entry.
UniProt A0A8I3MKE6, 1-646: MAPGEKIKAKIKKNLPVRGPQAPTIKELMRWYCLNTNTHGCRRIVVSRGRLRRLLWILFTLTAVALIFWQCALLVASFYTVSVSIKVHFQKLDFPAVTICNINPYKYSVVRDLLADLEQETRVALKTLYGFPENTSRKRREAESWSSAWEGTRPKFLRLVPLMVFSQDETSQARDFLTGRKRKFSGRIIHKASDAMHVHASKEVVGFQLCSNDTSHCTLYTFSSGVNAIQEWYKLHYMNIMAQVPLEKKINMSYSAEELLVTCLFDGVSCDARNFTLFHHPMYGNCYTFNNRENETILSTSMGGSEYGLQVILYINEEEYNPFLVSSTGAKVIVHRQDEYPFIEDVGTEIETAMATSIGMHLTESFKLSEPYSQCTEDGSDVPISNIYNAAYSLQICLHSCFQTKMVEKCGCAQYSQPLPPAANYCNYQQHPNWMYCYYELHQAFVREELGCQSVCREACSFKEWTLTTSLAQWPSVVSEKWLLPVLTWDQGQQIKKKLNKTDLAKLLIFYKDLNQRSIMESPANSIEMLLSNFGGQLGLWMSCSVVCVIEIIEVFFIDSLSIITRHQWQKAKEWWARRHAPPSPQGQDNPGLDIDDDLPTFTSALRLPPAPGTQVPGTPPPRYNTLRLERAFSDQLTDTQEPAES
UniProt A0A8I3Q679, 1-649: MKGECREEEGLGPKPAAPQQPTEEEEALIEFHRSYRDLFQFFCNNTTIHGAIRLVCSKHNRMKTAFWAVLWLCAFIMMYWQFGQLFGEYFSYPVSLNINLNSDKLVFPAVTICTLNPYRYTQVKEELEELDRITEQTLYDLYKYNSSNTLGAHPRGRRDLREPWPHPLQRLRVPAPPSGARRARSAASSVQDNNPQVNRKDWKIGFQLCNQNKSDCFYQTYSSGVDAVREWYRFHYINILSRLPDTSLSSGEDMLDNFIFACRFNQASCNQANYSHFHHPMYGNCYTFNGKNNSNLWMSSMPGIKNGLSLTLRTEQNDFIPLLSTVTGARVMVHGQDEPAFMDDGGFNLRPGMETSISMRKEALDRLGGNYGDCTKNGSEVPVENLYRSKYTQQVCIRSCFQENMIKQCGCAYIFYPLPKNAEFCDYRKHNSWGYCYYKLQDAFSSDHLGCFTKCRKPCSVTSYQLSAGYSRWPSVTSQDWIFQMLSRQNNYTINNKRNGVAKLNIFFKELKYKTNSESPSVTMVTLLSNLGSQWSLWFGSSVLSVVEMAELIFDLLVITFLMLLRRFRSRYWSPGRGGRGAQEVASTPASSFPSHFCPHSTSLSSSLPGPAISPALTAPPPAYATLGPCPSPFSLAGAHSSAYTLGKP
UniProt Q95165, whole entry: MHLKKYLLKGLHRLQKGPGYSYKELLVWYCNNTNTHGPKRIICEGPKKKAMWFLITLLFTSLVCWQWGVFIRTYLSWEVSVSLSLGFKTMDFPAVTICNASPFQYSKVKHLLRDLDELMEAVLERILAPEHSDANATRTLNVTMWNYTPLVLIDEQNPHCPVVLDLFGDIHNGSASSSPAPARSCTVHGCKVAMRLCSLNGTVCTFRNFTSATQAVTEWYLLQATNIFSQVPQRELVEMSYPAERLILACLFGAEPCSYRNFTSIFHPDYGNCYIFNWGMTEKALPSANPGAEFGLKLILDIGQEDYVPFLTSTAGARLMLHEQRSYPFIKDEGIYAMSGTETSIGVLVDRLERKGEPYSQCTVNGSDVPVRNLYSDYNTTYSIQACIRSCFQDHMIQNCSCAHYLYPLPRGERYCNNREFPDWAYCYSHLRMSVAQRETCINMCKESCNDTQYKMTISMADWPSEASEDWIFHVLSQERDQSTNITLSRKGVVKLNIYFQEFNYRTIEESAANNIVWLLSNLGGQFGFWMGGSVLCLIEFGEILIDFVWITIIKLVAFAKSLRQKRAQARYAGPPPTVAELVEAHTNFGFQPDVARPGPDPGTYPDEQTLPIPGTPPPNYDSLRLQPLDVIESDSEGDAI

This experiment deals with epithelial sodium channels (ENaC) (Canis lupus familiaris, UniProt A0A8I3MKE6+A0A8I3Q679+Q95165). Nature of the experiment: In vitro sodium channel blocking activity (short circuit current, Ussing chambers), dog airway cells. In kind it is cell-based. As to conditions: freshly excised cell from dog airways; tested form: 2 CH3SO3H.

Compound `N=C(N)NCCCOc1ccc2cc(CCCCNC(=N)NC(=O)c3nc(Cl)c(N)nc3N)ccc2c1` displayed an IC50 of 9.6 nM.
